Test results reported in publication PMC3530405 (Journal of immunology (Baltimore, Md. : 1950), 2012).

Chains of the proteins cited; added tags and fusions are not shown.
UniProt Q6P179, whole entry K392N: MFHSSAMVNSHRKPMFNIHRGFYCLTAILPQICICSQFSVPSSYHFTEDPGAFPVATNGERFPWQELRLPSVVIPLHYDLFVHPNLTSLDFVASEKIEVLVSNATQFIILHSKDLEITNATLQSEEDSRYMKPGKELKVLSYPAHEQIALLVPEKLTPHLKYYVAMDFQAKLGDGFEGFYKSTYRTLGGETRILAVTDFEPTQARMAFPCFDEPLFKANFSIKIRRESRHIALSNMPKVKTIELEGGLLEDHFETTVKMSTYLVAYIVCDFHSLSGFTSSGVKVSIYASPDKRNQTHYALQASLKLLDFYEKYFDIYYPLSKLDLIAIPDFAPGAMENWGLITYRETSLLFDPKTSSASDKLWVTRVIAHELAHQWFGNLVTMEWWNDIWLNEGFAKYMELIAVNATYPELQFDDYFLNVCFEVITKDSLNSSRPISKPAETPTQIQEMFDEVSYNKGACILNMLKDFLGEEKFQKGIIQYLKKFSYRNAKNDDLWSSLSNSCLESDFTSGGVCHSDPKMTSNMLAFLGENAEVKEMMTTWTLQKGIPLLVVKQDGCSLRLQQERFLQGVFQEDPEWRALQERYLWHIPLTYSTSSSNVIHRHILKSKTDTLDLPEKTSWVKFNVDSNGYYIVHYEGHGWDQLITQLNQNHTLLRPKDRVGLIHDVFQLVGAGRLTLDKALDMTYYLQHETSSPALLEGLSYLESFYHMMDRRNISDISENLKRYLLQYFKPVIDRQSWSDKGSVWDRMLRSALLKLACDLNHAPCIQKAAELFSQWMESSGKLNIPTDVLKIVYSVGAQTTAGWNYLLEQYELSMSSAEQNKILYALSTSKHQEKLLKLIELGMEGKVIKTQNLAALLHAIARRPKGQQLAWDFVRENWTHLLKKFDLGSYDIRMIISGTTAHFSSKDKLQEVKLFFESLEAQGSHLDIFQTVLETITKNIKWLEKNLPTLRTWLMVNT

Biological target: ERAP2^N (Homo sapiens, UniProt Q6P179, K392N)
Test: Peptide trimming by ERAP2^N
Type: biochemical
Conditions: 37°C

Sequence: KSLYNTVATL
- epitope production, comparison of alleles (ERAP2^N and ERAP2^K, 20 μM peptide, 50 mM HEPES pH 7.0, 100 mM NaCl): produced equally effectively by both ERAP2 alleles
- trimming rates, comparison of alleles (ERAP2^N vs ERAP2^K, 20 μM precursor, pH 7.0): almost identical rates by both ERAP2 alleles
